Target: Histones H3–H4 (H3 C110A-H4 E63C), Alexa488-labeled (Xenopus laevis, maleimide AlexaFluor-488 on E63C)
Test: fluorescence polarisation; 10 nM Alexa488-labeled H3–H4 with increasing CAF-1, Polϵ, Polδ or RPA; 25 mM TRIS pH 7.5, 300 mM NaCl, 5% glycerol, 1 mM EDTA, 0.01% IGEPAL, 0.01% CHAPS, 1 mM DTT; one site binding curve
Conditions: both partners purified

B1: RPA (complex)
chain 1: MSSVQLSRGDFHSIFTNKQRYDNPTGGVYQVYNTRKSDGANSNRKNLIMISDGIYHMKALLRNQAASKFQSMELQRGDIIRVIIAEPAIVRERKKYVLLVDDFELVQSRADMVNQTSTFLDNYFSEHPNETLKDEDITDSGNVANQTNASNAGVPDMLHSNSNLNANERKFANENPNSQKTRPIFAIEQLSPYQNVWTIKARVSYKGEIKTWHNQRGDGKLFNVNFLDTSGEIRATAFNDFATKFNEILQEGKVYYVSKAKLQPAKPQFTNLTHPYELNLDRDTVIEECFDESNVPKTHFNFIKLDAIQNQEVNSNVDVLGIIQTINPHFELTSRAGKKFDRRDITIVDDSGFSISVGLWNQQALDFNLPEGSVAAIKGVRVTDFGGKSLSMGFSSTLIPNPEIPEAYALKGWYDSKGRNANFITLKQEPGMGGQSAASLTKFIAQRITIARAQAENLGRSEKGDFFSVKAAISFLKVDNFAYPACSNENCNKKVLEQPDGTWRCEKCDTNNARPNWRYILTISIIDETNQLWLTLFDDQAKQLLGVDANTLMSLKEEDPNEFTKITQSIQMNEYDFRIRAREDTYNDQSRIRYTVANLHSLNYRAEADYLADELSKALLA
chain 2: MATYQPYNEYSSVTGGGFENSESRPGSGESETNTRVNTLTPVTIKQILESKQDIQDGPFVSHNQELHHVCFVGVVRNITDHTANIFLTIEDGTGQIEVRKWSEDANDLAAGNDDSSGKGYGSQVAQQFEIGGYVKVFGALKEFGGKKNIQYAVIKPIDSFNEVLTHHLEVIKCHSIASGMMKQPLESASNNNGQSLFVKDDNDTSSGSSPLQRILEFCKKQCEGKDANSFAVPIPLISQSLNLDETTVRNCCTTLTDQGFIYPTFDDNNFFAL
chain 3: MASETPRVDPTEISNVNAPVFRIIAQIKSQPTESQLILQSPTISSKNGSEVEMITLNNIRVSMNKTFEIDSWYEFVCRNNDDGELGFLILDAVLCKFKENEDLSLNGVVALQRLCKKYPEIY
Binder B1 has a Kd of at least 300 nM.

Source: article PMC10164577, “CAF-1 deposits newly synthesized histones during DNA replication using distinct mechanisms on the leading and lagging strands” (Nucleic Acids Research, 2022)
